Three compounds from patent US11365196B2, “FGFR inhibitor and application thereof” (Betta Pharmaceuticals Co., Ltd., priority 2017, dated 2022) can be followed below.

The term IC50 denotes the concentration that gives 50% inhibition.

One assay deals with NCI-H1581 cells. Briefly: Cell proliferation assay on NCI-H1581 (Table 7). Format: cell-based. The conditions noted are these: Homo sapiens, NCI-H1581, read-out: IC50(nM) value of compounds on NCI-H1581 cells. The source says: (§1) Test method: adding the appropriate volume of whole medium and the cells was suspended.
The test system of the next assay is SNU-16 cells. Briefly: Cell proliferation assay on SNU-16, CellTiter Glo (Table 8). Format: cell-based. The conditions noted are these: Homo sapiens, 96 hrs, class symbols, read-out: IC50(nM) value of compounds on SNU-16 cells.
Description: as §1
In general terms: In ATP-based viability assays light output follows the ATP content of the culture.

Consider `C=CC(=O)N1C[C@H]2CN(CCCc3nc4c(-c5c(Cl)c(OC)cc(OC)c5Cl)cc5cnc(NC)nc5n4n3)C[C@H]2C1` [Compound 128, 1-((3aR,6aS)-5-(3-(4-(2,6-dichloro-3,5-dimethoxyphenyl)-8-(methylamino)-[1,2,4]triazolo[1′,5′:1,6]pyrido[2,3-d]pyrimidin-2-yl)propyl)hexahydropyrrolo[3,4-c]pyrrol-2(1H)-yl)prop-2-en-1-one], for which the values for the IC50 with NCI-H1581 cells and in the assay with SNU-16 cells were 1 to 10 nM and less than 1 nM, respectively.
Taken in the same sequence, the figures for `C=CC(=O)N1CCN(CCCc2nc3c(-c4c(Cl)c(OC)cc(OC)c4Cl)cc4cnc(NC)nc4n3n2)C(C)(C)C1` [Compound 142, 1-(4-(3-(4-(2,6-dichloro-3,5-dimethoxyphenyl)-8-(methylamino)-[1,2,4]triazolo[1′,5′:1,6]pyrido[2,3-d]pyrimidin-2-yl)propyl)-3,3-dimethylpiperazin-1-yl)prop-2-en-1-one] were 1 to 10 nM and less than 1 nM.
Consider `COc1cc(OC)c(Cl)c(-c2cc3cnc(Nc4ccc(N5CCN(C)CC5)nc4)nc3n3cnnc23)c1` [Compound 110, 6-(2-chloro-3,5-dimethoxyphenyl)-N-(6-(4-methylpiperazin-1-yl)pyridin-3-yl)-[1,2,4]triazolo[4′,3′:1,6]pyrido[2,3-d]pyrimidin-2-amine], for which the IC50 is 1 to 10 nM with NCI-H1581 cells and less than 1 nM with SNU-16 cells.
